The series concerns humans. Description: Clinical pilot study of side effects after inhalation. Conditions: 80 humans; blood samples before the test, on the 4th and 8th day.

Results on one compound are retold here after patent EP4014973B1, “INHALED LIQUID FOR THE TREATMENT OF RESPIRATORY INFECTIONS IN HUMANS CAUSED BY PATHOGENS RESISTANT TO ANTIBIOTICS” (Conick Biotech LLC, priority 2020, dated 2022).

For the compound `C=CCc1ccc(O)c(OC)c1.CCN(CC)CC(=O)Nc1c(C)cccc1C` [Novel Compound, N-[N'-(carboxymethylenyl-2,6-dimethyl-aniline)-N,N-diethylammonium]-[2'-methoxy-4'-(2'-propenyl)]-phenolate.], the “kidney functions (urine and blood parameters)” value was “did not have any negative effects on kidney”.
